Experiments:
Human plasma kallikrein = Human plasma kallikrein (Homo sapiens (Human), UniProt P03952); experiment: Determination of the IC50 for plasma kallikrein; assay type: biochemical; settings: read-out: IC50 (human PKal); 25° C., substrate H-DPro-Phe-Arg-AFC
Human KLK1 = Human KLK1 (Homo sapiens (Human), UniProt P06870); experiment: Determination of the IC50 for KLK1; assay type: biochemical; settings: read-out: IC50 (human KLK1); 25° C., substrate H-DVal-Leu-Arg-AFC
Human FXIa = Human FXIa (Homo sapiens (Human), UniProt P03951); experiment: Determination of the % inhibition / IC50 for FXIa; assay type: biochemical; settings: read-out: IC50 (human FXIa); 25° C., substrate Z-Gly-Pro-Arg-AFC
Experimental: FXIa inhibitory activity in vitro was determined using standard published methods (see e.g. Johansen et al., Int. J. Tiss. Reac. 1986, 8, 185; Shori et al., Biochem. Pharmacol., 1992, 43, 1209; Sturzebecher et al., Biol. Chem. Hoppe-Seyler, 1992, 373, 1025). […]

Chains of the proteins cited; added tags and fusions are not shown. Residues count along the entry.
UniProt P03952, 20-390 limits assumed: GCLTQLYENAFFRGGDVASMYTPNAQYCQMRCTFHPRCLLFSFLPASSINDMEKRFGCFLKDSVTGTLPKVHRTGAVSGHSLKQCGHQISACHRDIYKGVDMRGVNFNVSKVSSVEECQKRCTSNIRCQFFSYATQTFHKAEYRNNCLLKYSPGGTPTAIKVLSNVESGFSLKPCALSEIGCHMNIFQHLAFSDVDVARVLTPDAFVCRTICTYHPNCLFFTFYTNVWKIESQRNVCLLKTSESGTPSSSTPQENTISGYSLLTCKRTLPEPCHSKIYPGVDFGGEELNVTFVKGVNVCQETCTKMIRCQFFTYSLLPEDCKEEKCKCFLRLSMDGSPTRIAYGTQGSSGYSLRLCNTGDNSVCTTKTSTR
UniProt P03952, 391-638 limits assumed: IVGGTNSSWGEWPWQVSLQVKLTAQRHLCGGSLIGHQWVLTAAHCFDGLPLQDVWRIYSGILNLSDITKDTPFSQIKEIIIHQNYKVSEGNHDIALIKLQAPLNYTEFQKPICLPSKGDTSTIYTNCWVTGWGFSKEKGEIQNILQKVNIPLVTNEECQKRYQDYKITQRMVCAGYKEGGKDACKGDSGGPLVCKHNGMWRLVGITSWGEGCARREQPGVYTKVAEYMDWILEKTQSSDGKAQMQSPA
UniProt P06870, 25-262 limits assumed: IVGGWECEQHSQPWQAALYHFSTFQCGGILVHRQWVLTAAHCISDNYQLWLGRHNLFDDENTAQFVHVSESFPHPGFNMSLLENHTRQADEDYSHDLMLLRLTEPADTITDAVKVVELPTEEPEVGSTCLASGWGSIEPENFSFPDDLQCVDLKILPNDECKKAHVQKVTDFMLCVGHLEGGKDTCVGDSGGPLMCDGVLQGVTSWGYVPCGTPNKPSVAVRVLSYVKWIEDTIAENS
UniProt P03951, 19-387 limits assumed: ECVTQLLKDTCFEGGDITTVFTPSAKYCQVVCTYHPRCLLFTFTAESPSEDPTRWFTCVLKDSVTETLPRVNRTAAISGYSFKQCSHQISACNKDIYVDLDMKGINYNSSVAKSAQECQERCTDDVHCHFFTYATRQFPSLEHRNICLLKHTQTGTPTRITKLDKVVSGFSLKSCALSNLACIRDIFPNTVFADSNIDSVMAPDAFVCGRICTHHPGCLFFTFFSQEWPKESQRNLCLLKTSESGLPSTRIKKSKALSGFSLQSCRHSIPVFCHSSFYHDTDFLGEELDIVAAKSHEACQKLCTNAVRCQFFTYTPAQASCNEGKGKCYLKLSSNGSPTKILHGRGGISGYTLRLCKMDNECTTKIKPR
UniProt P03951, 388-625 limits assumed: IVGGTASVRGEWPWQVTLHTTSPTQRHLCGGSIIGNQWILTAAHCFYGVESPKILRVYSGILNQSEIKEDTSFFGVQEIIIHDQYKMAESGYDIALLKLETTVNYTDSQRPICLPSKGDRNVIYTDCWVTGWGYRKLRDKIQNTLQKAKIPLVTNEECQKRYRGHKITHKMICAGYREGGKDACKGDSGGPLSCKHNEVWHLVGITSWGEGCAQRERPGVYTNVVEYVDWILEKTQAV
UniProt P00748, 373-615 limits assumed: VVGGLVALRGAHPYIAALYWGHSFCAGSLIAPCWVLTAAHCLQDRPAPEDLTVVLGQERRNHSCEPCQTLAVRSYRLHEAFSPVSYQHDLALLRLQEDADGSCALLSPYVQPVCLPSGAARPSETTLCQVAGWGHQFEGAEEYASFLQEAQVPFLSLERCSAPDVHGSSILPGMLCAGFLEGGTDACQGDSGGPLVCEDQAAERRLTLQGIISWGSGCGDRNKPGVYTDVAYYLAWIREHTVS

Human Factor XIIa = Human Factor XIIa (Homo sapiens (Human), UniProt P00748); experiment: Factor XIIa inhibitory activity in vitro; settings: read-out: IC50 (human FXIIa); 25° C., substrate H-DPro-Phe-Arg-AFC
Caco-2 monolayers = experiment: In vitro permeability, Caco-2 model for oral absorption; assay type: in vitro ADME; settings: apical to basolateral, 50 μM test compound, 1 hour, 37° C.
Experimental: In vitro permeability was determined using the Caco-2 model for oral absorption. The methodology was adapted from standard published methods (Wang Z, Hop C. E., Leung K. H. and Pang J. (2000) J Mass Spectrom 35(1); 71-76). The Caco-2 monolayers were established in a Biocoat™ HTS fibrillar collagen 24 well multiwell insert system (1.0 μm, PET membrane, Corning 354803) in which 200,000 cells were seeded into each insert and maintained over 3 days before being utilised in the permeability assay. For the assay, 50 μM test compound is added to the apical side of the inserts and incubated for 1 hour at 37° C. on a shaking platform (120 rpm). Apical to basolateral transport was determined by measuring the test article in both compartments by LCMS following the 1 hour incubation. The integrity of the Caco-2 monolayers was confirmed by two methods, (i) comparison of pre- and post-experiment transepithelial electrical resistance (TEER) and, (ii) assessment of Lucifer Yellow flux.

[1] = Intrinsic clearance in human liver microsomes; assay type: in vitro ADME; settings: human liver microsomes 0.5 mg/mL, 5 μM test compound, 37° C.
[2] = Intrinsic clearance in rat liver microsomes; settings: rat liver microsomes 0.5 mg/mL, 5 μM test compound, 37° C.

IC50 (Human plasma kallikrein) [µM] | IC50 (Human KLK1) [µM] | IC50 (Human FXIa) [µM] | IC50 (Human Factor XIIa) [µM] | Caco-2 (Papp ×10^−6 cm/s) (Caco-2 monolayers) | Human liver microsome (Clint μL/min/mg protein) [1] [μL/min/mg protein] | rat liver microsome (Clint μL/min/mg protein) [2] [μL/min/mg protein] | Structure (SMILES)
0.731 | > 40 | > 40 | > 40 | 7 ×10^−6 cm/s | 71 | 72 | O=C(NCc1cccc(Cl)c1F)c1cnn(Cc2ccc(Cn3cccn3)cc2)c1
2.03 | > 40 | > 40 | > 40 | 8 ×10^−6 cm/s | 58 | 62 | O=C(NCc1cccc(Cl)c1)c1cnn(Cc2ccc(Cn3cccn3)cc2)c1

From US11180484B2, “Pyrazole derivatives as plasma kallikrein inhibitors” (KALVISTA PHARMACEUTICALS LIMITED, priority 2016, dated 2021)
